# Laboratory results taken from ChEMBL document CHEMBL4390675, “Dopamine D4 Receptor-Selective Compounds Reveal Structure-Activity Relationships that Engender Agonist Efficacy” (J Med Chem, 2019).
# Amino acid sequences for entries named in this document (tags omitted).
# UniProt P35462, whole entry: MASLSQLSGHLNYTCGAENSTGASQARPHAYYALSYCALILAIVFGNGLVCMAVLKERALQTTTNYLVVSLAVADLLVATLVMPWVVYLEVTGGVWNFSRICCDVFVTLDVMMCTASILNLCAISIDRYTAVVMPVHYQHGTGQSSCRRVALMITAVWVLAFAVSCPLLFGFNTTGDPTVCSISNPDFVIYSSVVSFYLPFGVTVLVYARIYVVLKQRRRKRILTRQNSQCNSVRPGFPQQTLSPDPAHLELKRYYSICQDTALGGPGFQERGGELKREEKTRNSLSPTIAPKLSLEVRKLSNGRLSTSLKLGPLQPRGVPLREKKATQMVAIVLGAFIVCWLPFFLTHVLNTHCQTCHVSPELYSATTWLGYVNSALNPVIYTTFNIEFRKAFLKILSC
# UniProt P21917, whole entry: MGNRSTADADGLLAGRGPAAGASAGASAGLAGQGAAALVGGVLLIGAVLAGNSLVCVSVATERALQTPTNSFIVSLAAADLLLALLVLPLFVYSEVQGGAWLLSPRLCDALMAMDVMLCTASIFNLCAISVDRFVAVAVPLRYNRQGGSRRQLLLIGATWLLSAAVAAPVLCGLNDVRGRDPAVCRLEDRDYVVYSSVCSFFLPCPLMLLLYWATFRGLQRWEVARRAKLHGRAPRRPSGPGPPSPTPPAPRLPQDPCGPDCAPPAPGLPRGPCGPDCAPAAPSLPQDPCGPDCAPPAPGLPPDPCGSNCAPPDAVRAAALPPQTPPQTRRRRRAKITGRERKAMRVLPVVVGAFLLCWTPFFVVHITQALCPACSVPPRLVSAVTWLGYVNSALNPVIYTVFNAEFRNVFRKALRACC
# Activity calls are given as the source filed them. The rule behind the calls is not given here.
# Experiments:
# D(3) dopamine receptor [1] = target: T1, D(3) dopamine receptor (Homo sapiens, UniProt P35462); assay: Agonist activity at human D3 receptor expressed in CHOK1 cells assessed as induction of beta-arrestin recruitment measured after 90 mins by luminescence assay relative to control; format: cell-based
# In short: (§1)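 PathHunter enzyme-complementation assay in CHO-K1 cells stably expressing human D2R long isoform, D3R or D4R, seeded overnight in Ham's F12/10% FBS. Compounds were diluted in PBS with 0.2 μM sodium metabisulfite and applied at multiple concentrations for 90 min at 37 °C. Detection reagent was added for 45–60 min at room temperature, then luminescence was read. Values are % of maximal dopamine response, from nonlinear regression of triplicate runs, mean ± SEM, n = 3–4.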
# D(3) dopamine receptor [2] = target: T1, D(3) dopamine receptor; assay: Antagonist activity at human D3 receptor expressed in CHOK1 cells assessed as inhibition of dopamine-induced beta-arrestin recruitment measured after 90 mins by luminescence assay relative to control; format: cell-based
# In short: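 Antagonist-mode PathHunter β-arrestin assay in CHO-K1 cells stably expressing human D2R long isoform or D3R, seeded overnight. Compound dilutions in PBS with 0.2 μM metabisulfite were co-incubated with an EC80 dopamine concentration for 90 min at 37 °C. Detection reagent was added for 45–60 min at room temperature, then luminescence was read. Values are % of dopamine EC80 response, from nonlinear regression of triplicate runs, n = 3–4.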
# D(4) dopamine receptor [3] = target: T2, D(4) dopamine receptor (Homo sapiens, UniProt P21917); assay: Antagonist activity at human D4 receptor expressed in CHOK1 cells assessed as inhibition of dopamine-induced beta-arrestin recruitment measured after 90 mins by luminescence assay relative to control; format: cell-based; parameters: concentration or dose not given beside the values
# D(4) dopamine receptor [4] = target: T2, D(4) dopamine receptor; assay: Agonist activity at human D4 receptor expressed in CHOK1 cells assessed as inhibition of forskolin-induced cAMP accumulation measured after 30 mins by Eu-cAMP tracer based TR-FRET assay relative to dopamine; format: functional, cell-based
# In short: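 LANCE Ultra TR-FRET cAMP assay in CHO-K1 cells stably expressing human D2R long isoform or D4R. Cells were plated in HBSS/5 mM HEPES/0.2 μM metabisulfite, then immediately given compound plus forskolin (10 μM final) for 30 min at room temperature. Eu-cAMP tracer and ULight-anti-cAMP were added for 2 h in the dark. Values are % of maximal dopamine signal, nonlinear regression of triplicate runs, n = 3–4.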
# D(4) dopamine receptor [5] = target: T2, D(4) dopamine receptor; assay: Antagonist activity at human D4 receptor expressed in CHOK1 cells assessed as suppression of dopamine-induced inhibition of forskolin-stimulated cAMP accumulation measured after 30 mins by Eu-cAMP tracer based TR-FRET assay relative to dopamine; format: functional, cell-based; parameters: concentration or dose not given beside the values
# D(4) dopamine receptor [6] = target: T2, D(4) dopamine receptor; assay: Agonist activity at human D4 receptor expressed in CHOK1 cells assessed as induction of beta-arrestin recruitment measured after 90 mins by luminescence assay relative to control; format: cell-based; in short: as §1
SMILES,Emax (D(3) dopamine receptor [1]),inhibition (D(3) dopamine receptor [2]),inhibition (D(4) dopamine receptor [3]),Emax (D(4) dopamine receptor [4]),inhibition (D(4) dopamine receptor [5]) [%],Emax (D(4) dopamine receptor [6])
Cc1cccc(NC(=O)CN2CCN(c3cccc4ccccc34)CC2)c1,inactive,inactive,–,–,–,–
Cc1cccc(NC(=O)CN2CCC(c3ccc(Cl)cc3)CC2)c1,inactive,inactive,100%,inactive,100,inactive
O=C(CN1CCN(c2ccc(Cl)cn2)CC1)Nc1cncnc1,inactive,inactive,100%,inactive,100,inactive
Cc1ccc(C2CCN(CC(=O)Nc3cccc(C)c3)CC2)cc1,inactive,inactive,100%,inactive,95.8,inactive
Cc1cccc(NC(=O)CCN2CCN(c3ccccn3)CC2)c1,–,–,97.9%,30%,84.2,inactive
O=C(CN1CCN(c2ccccn2)CC1)Nc1cccnc1,18.6%,inactive,–,–,–,–
Cc1cccc(NC(=O)CCN2CCC(c3ccccn3)CC2)c1,–,–,98.7%,28.1%,77.6,inactive
Cc1ccc(C2CCN(CC(=O)Nc3cccc(C)c3)CC2)nc1,inactive,inactive,98.1%,inactive,100,inactive
Cc1cccc(NC(=O)CN2CCC(c3ccccc3)CC2)c1,inactive,–,–,–,–,–
O=C(CN1CCN(c2ccc(Cl)cn2)CC1)Nc1cccnc1,inactive,inactive,93.1%,inactive,100,inactive
Cc1cccc(NC(=O)CCN2CCN(c3ncccn3)CC2)c1,inactive,–,97.1%,13.7%,87,inactive
Cc1cccc(NC(=O)CN2CCN(c3ccc(Cl)cn3)CC2)c1,inactive,inactive,–,inactive,–,inactive
O=C(CN1CCN(c2ccccn2)CC1)Nc1cncnc1,inactive,inactive,inactive,inactive,100,inactive
CCc1cccc(NC(=O)CN2CCN(c3ccc(Cl)cn3)CC2)c1,inactive,inactive,80.4%,inactive,100,inactive
CCc1cccc(NC(=O)CN2CCC(c3ccccn3)CC2)c1,inactive,–,91.7%,25.6%,70.8,inactive
